{
  "source": "PubChem BioAssay AID1479",
  "about": "(National Center for Advancing Translational Sciences (NCATS), 2009)",
  "note": "The list shows a part of the results, in another mix than the full data. Some tests of the compounds listed are not included; inactive here does not mean inactive elsewhere. Activity calls are given as the source filed them. The call rests on the fitted dose curve; in most records, active means well fitted curve in either direction with a large enough effect; inconclusive means small, poorly fitted or top-dose-only effect; inactive means flat fitted curve, though single readings scatter. On the % scale 0 is the no-effect control and ±100 the full control effect.",
  "data": [
    {"test": "Total Fluorescence Counterscreen for Inhibitors of the Interaction of Thyroid Hormone Receptor and Steroid Receptor Coregulator 2", "settings": "TRb/SRC2 Texas Red total fluorescence interference; at 106 µM (top of the series)", "values": [
      {"smiles": "CN(C)C1CCCC1OC(=O)C(O)(c1ccccc1)c1ccccc1", "note": "(centres undefined)", "fluorescence change, negative = quenching": "inactive: 0.11%"},
      {"smiles": "Cc1ccccc1C(=O)NCC1(N2CCCCC2)CCCCC1", "fluorescence change, negative = quenching": "inactive: -0.863%"},
      {"smiles": "CN(C)C1(CNC(=O)c2ccccc2[N+](=O)[O-])CCCCC1", "fluorescence change, negative = quenching": "inactive: 3.56%"},
      {"smiles": "CCN1CCCC(OC(=O)C2(O)c3ccccc3C=Cc3ccccc32)C1", "note": "(centres undefined)", "fluorescence change, negative = quenching": "inactive: 0.325%"},
      {"smiles": "CCOc1cccc(C(=O)NCC2(N(C)C)CCCCC2)c1", "fluorescence change, negative = quenching": "inactive: -1.85%"},
      {"smiles": "O=C(NCC1(N2CCCCC2)CCCCC1)c1cc([N+](=O)[O-])ccc1Cl", "fluorescence change, negative = quenching": "inactive: -3.26%"},
      {"smiles": "CN(C)C1(CNC(=O)c2ccccc2F)CCCCC1", "fluorescence change, negative = quenching": "inactive: -0.258%"},
      {"smiles": "CN(C)C1(CNC(=O)c2cccc(Cl)c2)CCCCC1", "fluorescence change, negative = quenching": "inactive: -0.573%"},
      {"smiles": "CCN(CC)CC(C)C(C)OC(=O)C(O)(c1ccccc1)c1ccccc1", "note": "(centres undefined)", "fluorescence change, negative = quenching": "inactive: -0.938%"},
      {"smiles": "CC(C)COc1ccc(C(=O)NCC2(N(C)C)CCCCC2)cc1", "fluorescence change, negative = quenching": "inactive: -1.03%"},
      {"smiles": "O=C(OC1CN2CCC1CC2)C(CO)(c1ccccc1)c1ccccc1", "note": "(centres undefined)", "fluorescence change, negative = quenching": "inactive: 1.78%"},
      {"smiles": "COc1cccc(C(=O)NCC2(N3CCOCC3)CCCCC2)c1", "fluorescence change, negative = quenching": "inactive: -0.64%"},
      {"smiles": "CN(C)c1cccc(C(=O)NCC2(N(C)C)CCCCC2)c1", "fluorescence change, negative = quenching": "inactive: 0.586%"},
      {"smiles": "CC(C)Oc1ccc(C(=O)NCC2(N(C)C)CCCCC2)cc1", "fluorescence change, negative = quenching": "inactive: -20.8%"},
      {"smiles": "COc1ccc(Br)c(C(=O)NCC2(N3CCCCC3)CCCCC2)c1", "fluorescence change, negative = quenching": "inactive: -5.82%"},
      {"smiles": "Cc1cccc(C(=O)NCC2(N(C)C)CCCCC2)c1", "fluorescence change, negative = quenching": "inactive: -14.2%"},
      {"smiles": "COc1cc(C(=O)NCC2(N(C)C)CCCCC2)cc(OC)c1OC", "fluorescence change, negative = quenching": "inactive: 1.51%"},
      {"smiles": "COc1ccc(C(=O)NCC2(N(C)C)CCCCC2)cc1Cl", "fluorescence change, negative = quenching": "inactive: -33.8%"},
      {"smiles": "COc1cccc(C(=O)NCC2(N3CCCCC3)CCCCC2)c1", "fluorescence change, negative = quenching": "inactive: -3.16%"}
    ]}
  ]
}
